Values quoted from earlier work as cited in patent US20230414560A1, “COMPOSITIONS AND METHODS FOR TREATING ECZEMA” (General Nutraceutical Technology LLC, priority 2022, published 2023).

Conditions: TCMSP database, Table 1; cited from earlier work

Substance: indirubin
- O.B. (oral bioavailability): 48.59
